Experimental data taken from ChEMBL document CHEMBL5360519, “Chemical similarities and differences among inhibitors of nitric oxide synthase, arginase and dimethylarginine dimethylaminohydrolase-1: Implications for the design of novel enzyme inhibitors modulating the nitric oxide pathway” (Bioorg Med Chem, 2022).

The chains behind the UniProt entries cited, without tags or fusion partners.
UniProt P29476, whole entry: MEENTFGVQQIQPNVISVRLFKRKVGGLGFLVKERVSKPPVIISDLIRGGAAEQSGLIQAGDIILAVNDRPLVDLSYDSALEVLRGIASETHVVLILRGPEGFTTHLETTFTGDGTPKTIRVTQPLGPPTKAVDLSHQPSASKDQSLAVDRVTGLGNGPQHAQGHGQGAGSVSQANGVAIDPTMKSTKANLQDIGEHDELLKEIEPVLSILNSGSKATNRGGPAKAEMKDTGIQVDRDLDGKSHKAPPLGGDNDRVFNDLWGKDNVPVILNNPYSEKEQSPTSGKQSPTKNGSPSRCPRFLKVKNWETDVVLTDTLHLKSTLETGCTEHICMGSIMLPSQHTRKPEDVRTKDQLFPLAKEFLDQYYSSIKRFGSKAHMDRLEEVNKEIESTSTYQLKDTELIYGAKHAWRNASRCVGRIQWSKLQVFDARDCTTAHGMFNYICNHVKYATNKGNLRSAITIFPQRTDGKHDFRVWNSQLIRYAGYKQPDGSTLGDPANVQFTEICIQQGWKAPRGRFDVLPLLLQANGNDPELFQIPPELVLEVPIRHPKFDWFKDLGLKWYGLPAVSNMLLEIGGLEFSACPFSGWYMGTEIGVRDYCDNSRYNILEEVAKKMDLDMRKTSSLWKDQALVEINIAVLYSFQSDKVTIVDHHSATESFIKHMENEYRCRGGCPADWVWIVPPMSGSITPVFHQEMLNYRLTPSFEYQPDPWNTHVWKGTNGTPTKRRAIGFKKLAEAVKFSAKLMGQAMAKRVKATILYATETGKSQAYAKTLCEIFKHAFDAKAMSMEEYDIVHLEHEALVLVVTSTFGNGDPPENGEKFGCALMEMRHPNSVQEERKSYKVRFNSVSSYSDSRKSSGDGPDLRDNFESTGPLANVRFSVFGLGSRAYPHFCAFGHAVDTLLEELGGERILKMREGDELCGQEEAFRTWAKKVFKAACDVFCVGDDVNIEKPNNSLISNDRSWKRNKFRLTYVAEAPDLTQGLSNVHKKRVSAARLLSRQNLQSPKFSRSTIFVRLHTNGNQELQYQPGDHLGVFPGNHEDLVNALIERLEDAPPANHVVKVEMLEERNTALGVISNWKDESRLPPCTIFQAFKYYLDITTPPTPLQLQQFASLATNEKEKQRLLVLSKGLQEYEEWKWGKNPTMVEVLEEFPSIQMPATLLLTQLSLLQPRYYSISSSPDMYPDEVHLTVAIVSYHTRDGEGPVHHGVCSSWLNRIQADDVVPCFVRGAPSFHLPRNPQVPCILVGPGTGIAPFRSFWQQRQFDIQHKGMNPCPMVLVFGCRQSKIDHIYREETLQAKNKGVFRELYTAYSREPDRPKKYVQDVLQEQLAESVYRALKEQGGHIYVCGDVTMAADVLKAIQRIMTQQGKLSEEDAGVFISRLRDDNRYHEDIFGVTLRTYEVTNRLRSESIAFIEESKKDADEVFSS
UniProt P29475, whole entry: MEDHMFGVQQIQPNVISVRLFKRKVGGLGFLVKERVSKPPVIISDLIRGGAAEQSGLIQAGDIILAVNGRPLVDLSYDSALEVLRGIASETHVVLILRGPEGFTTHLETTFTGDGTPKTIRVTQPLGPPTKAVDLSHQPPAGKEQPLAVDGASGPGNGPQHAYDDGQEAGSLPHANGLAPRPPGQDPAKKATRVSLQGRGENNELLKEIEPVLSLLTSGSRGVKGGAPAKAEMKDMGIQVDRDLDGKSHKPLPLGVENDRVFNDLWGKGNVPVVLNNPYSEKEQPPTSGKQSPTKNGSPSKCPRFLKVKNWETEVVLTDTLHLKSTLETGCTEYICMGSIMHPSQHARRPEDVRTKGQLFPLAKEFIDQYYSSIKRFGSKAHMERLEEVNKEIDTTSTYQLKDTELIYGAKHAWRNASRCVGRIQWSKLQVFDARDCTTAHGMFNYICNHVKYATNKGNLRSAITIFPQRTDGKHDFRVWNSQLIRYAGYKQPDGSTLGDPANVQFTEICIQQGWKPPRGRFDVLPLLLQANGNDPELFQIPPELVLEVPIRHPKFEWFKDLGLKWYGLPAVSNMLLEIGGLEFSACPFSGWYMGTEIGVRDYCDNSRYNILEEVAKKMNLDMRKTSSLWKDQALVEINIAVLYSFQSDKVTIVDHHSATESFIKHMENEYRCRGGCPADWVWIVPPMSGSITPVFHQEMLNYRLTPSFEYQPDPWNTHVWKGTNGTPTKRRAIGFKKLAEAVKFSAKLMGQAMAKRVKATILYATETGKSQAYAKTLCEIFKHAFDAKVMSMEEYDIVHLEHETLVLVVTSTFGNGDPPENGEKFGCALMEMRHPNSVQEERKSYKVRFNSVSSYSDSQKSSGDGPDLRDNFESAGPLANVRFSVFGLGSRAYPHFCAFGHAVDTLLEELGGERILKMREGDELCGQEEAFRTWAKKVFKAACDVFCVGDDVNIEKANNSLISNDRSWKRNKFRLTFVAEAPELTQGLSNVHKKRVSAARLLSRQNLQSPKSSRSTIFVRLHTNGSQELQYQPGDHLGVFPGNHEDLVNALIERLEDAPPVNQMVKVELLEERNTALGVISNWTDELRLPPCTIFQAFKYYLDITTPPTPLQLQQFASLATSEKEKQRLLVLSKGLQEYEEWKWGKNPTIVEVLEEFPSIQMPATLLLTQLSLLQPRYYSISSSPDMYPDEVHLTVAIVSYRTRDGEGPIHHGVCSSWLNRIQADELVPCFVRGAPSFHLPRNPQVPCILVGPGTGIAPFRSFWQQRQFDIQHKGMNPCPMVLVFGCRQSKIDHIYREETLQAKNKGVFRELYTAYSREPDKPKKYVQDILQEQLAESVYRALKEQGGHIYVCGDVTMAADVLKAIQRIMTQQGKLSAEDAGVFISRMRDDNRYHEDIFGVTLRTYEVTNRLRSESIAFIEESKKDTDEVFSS

How the values were obtained:
[1] = target: T1, Nitric oxide synthase 3 (Mus musculus, UniProt P70313); test: Inhibition of recombinant mouse eNOS overexpressed in Escherichia coli assessed as inhibition constant
T1 sequence (P70313 whole entry): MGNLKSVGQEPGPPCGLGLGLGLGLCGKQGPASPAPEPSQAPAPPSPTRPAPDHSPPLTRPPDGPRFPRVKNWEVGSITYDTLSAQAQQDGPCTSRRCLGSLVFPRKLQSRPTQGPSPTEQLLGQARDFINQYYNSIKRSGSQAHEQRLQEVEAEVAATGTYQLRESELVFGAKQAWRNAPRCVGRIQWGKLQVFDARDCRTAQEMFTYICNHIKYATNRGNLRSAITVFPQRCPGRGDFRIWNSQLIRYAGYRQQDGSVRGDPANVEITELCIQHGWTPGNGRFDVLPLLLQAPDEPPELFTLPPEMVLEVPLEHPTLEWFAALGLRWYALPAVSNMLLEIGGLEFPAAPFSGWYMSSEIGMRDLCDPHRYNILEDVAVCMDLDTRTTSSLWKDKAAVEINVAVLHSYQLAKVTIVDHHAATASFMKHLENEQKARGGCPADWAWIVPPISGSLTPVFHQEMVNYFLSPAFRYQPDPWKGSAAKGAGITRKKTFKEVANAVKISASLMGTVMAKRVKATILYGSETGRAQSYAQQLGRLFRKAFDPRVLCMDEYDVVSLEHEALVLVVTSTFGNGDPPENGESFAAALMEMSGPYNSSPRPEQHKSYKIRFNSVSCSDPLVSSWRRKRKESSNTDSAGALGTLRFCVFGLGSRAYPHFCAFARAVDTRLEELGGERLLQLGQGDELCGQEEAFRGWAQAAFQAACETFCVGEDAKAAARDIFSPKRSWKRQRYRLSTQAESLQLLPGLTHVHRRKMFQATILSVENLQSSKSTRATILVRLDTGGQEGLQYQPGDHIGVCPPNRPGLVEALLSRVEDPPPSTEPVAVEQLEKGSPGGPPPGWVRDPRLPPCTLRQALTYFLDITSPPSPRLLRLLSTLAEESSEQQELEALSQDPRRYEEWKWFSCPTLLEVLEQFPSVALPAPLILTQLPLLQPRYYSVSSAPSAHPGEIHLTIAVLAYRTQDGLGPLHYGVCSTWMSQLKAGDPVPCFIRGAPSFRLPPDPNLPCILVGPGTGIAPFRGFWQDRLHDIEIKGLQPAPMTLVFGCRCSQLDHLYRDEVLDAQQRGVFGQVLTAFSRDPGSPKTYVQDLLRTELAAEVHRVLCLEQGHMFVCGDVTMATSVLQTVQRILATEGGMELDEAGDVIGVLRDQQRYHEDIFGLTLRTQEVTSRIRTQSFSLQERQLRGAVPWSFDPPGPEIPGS

[2] = target: Nitric oxide synthase 1 (Rattus norvegicus, UniProt P29476); test: Inhibition of rat nNOS
[3] = target: T2, Nitric oxide synthase, inducible (Mus musculus, UniProt P29477); test: Inhibition of mouse iNOS overexpressed in Escherichia coli assessed as inhibition constant
T2 sequence (P29477 whole entry): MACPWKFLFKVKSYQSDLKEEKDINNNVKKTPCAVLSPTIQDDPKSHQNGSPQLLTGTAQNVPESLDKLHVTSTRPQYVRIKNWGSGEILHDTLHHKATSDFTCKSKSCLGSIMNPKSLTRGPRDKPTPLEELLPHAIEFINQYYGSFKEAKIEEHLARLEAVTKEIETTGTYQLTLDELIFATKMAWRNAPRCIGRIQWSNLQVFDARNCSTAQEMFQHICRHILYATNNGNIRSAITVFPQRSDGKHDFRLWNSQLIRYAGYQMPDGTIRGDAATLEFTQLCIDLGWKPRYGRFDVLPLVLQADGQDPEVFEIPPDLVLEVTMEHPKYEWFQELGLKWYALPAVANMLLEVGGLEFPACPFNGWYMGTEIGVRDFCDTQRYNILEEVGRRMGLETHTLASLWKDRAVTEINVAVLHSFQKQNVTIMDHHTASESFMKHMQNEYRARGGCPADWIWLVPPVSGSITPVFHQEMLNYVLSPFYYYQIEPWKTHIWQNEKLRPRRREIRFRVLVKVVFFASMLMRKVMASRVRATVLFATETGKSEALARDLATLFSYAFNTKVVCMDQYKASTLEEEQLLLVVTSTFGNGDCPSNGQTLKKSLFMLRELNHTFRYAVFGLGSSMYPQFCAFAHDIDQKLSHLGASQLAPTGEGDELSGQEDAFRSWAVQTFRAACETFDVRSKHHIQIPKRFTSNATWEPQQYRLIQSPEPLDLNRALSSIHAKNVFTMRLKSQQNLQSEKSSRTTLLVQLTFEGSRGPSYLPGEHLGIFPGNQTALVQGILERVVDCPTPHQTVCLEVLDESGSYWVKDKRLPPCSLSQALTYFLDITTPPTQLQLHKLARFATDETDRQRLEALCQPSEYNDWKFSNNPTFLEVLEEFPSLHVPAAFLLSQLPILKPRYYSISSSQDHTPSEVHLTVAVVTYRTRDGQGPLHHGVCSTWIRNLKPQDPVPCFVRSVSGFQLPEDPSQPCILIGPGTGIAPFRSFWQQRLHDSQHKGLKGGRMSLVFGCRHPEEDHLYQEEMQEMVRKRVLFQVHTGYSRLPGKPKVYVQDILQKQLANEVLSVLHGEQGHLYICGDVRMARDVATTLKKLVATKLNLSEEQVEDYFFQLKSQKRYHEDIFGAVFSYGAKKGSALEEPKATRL

[4] = target: Nitric oxide synthase 1 (Homo sapiens, UniProt P29475); test: Inhibition of human nNOS assessed as inhibition constant

| Ki [1] [µM] | IC50 [2] [µM] | Ki [3] [µM] | Ki [4] [µM] | SMILES |
| --- | --- | --- | --- | --- |
| 26.4 | – | – | – | Cc1cc(N)nc(C[C@H]2CNC[C@H]2NCCNCCc2cccc(F)c2)c1 |
| 20.3 | – | – | – | Cc1cc(N)nc(C[C@@H]2CNC[C@@H]2NCCNCCc2cccc(F)c2)c1 |
| – | 0.8 | 13.7 | 13.7 | CC(=N)NCCC[C@H](N)C(=O)O [L-NIO] |
